Laboratory results as given in ChEMBL document CHEMBL5512695, “Discovery of N-Substituted Acetamide Derivatives as Promising P2Y14R Antagonists Using Molecular Hybridization Based on Crystallographic Overlay” (J Med Chem, 2024).
The source made the active and inactive calls.

How the values were obtained:
Type in all cases: functional, organism-based
Conditions in all cases: route ip, time 25.0 hrs
Mus musculus [1] = test: Anti-inflammatory activity in MSU-induced acute gouty arthritis ICR mouse model assessed as decrease in redness of paw pretreated intraperitoneally 60 mins prior to MSU administration and measured for 24 hrs post-MSU administration
Mus musculus [2] = test: Anti-inflammatory activity in MSU-induced acute gouty arthritis ICR mouse model assessed as decrease in inflammatory cell infiltration in foot pretreated intraperitoneally 60 mins prior to MSU administration and measured for 24 hrs post-MSU administration by H and E staining based analysis
Mus musculus [3] = test: Anti-inflammatory activity in MSU-induced acute gouty arthritis ICR mouse model assessed as decrease in NLRP3 level in joints pretreated intraperitoneally 60 mins prior to MSU administration and measured for 24 hrs post-MSU administration by IHC staining based analysis

Measured: Activity

O=C(O)c1cc(-c2ccc(C3CCNCC3)cc2)c2ccc(-c3ccc(C(F)(F)F)cc3)cc2c1
active: all assays above
